# Where two headings read alike, the source gives them in different places.
# Key:
# [1] = Stability in simulated intestinal fluid (FaSSIF with pancreatin); type: in vitro ADME; conditions: 20 μM, FaSSIF 1% pancreatin, 37° C.
# Procedure: FaSSIF was prepared by dissolving 1.2 g porcine pancreatin (Chem-supply, PL378) in 100 mL Blank FaSSIF and stirred at room temperature for 30 minutes. The solution was filtered through 0.45 μm membrane and aliquot and stored at −20° C.
# (§1) Experimental compounds of interest (20 μM) were incubated with pre-warmed FaSSIF (1% pancreatin in final incubation mixture) at 37° C. Aliquots were taken at various time points up to 24 hours (e.g. 0, 0.25, 1, 3, 6 and 24 hr), and immediately quenched with 4 volumes of organic solvent (acetonitrile/methanol (1:1) and 0.1% formic acid, containing 1 μM internal standard). Quenched samples were stored at 4° C. until the end of the experiment and centrifuged at 4,000 rpm for 10 minutes. The supernatant were diluted 1:1 with deionized water and analyzed using LC-MS. Percentage remaining at each time point was calculated based on the peak area ratio (analyte over internal standard) relative to the initial level at time zero. Half-lives were calculated by fitting to a first-order exponential decay equation using GraphPad.
# Compounds of interest (at concentration of 20 μM) were mixed with pre-warmed FaSSIF (1% pancreatin in final working solution). The solution mixture was aliquoted and incubated at 37° C. The number of aliquots required was equivalent to the number of time points (e.g. 0, 0.25, 1, 3, 6 and 24 hr). At each time point, one aliquot was taken and immediately quenched with 4 volumes of organic solvent (acetonitrile/methanol (1:1) and 0.10% formic acid, containing 1 μM internal standard). The remaining steps were the same as the generic experimental.
# [2] = Stability in simulated gastric fluid (SGF with pepsin); type: in vitro ADME; conditions: 20 μM, SGF with pepsin pH 1.2, 37° C.
# Procedure: Blank SGF was prepared by adding 2 g sodium chloride, 7 mL hydrochloric acid (37%) in a final volume of 1 L water, and adjusted pH to 1.2.
# SGF was prepared by dissolving 320 mg Pepsin (Sigma®, P6887, from Porcine Stomach Mucosa) in 100 mL Blank SGF and stirred at room temperature for 30 minutes. The solution was filtered through 0.45 μm membrane and aliquot and stored at −20° C.
# as §1, with “(at a concentration of 20” for “(20”, “SGF” for “FaSSIF (1% pancreatin in final incubation mixture)”, “(e.g.,” for “(e.g.”
# human ferroportin = target: T1, human ferroportin (Homo sapiens, UniProt Q9NP59); assay: FPN activity assay: internalization/degradation of ferroportin-GFP in stably transfected HEK293 cells
# T1 sequence (Q9NP59 1-571): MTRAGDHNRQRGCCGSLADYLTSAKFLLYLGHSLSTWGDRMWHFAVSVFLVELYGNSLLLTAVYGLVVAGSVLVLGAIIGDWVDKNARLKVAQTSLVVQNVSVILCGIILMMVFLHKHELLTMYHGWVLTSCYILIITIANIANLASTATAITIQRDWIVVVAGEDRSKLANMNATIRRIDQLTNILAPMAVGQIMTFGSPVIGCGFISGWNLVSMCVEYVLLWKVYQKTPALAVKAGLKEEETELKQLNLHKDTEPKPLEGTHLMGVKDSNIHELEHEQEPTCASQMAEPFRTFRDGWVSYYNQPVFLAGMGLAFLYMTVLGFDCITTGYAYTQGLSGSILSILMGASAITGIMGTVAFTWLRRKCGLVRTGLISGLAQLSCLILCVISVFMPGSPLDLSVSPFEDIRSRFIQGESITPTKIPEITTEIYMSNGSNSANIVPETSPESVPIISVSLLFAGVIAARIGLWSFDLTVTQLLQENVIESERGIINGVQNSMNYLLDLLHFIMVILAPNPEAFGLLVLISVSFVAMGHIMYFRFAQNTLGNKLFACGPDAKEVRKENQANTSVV
# [3] = read-out: FPN EC50, Table 3A, HEK293 ferroportin-GFP cells, at least 18 hours incubation
# [4] = read-out: IC50: FPN internalisation, Table 3C
Substance,DC50 (human ferroportin; [4]) [µM],also measured
Isovaleric acid-D-T-H-[Dpa]-P-C-I-(D)Lys-bhPhe-[Lys(Ahx-Palm)]-(D)Lys-meCys-NH2 [Compound 3],,SIF Half life [1]: 1.1 h; SGF Half life [2]: 11 h
Isovaleric acid-D-T-H-[Dpa]-P-C-I-[Spiral_Pip]-bhPhe-[Lys(Ahx-Palm)]-(D)Lys-C-NH2 [Compound 27],,DC50 (human ferroportin; [3]): 0.0263 µM
Isovaleric acid-D-T-H-[Dpa]-P-C-I-bhPhe-[Lys(Ahx-Palm)]-(D)Lys-C-NH2 [Compound 18],,DC50 (human ferroportin; [3]): 0.0108 µM
Isovaleric acid-D-T-H-[Dpa]-[Npc]-C-I-(D)Lys-bhPhe-Lys[1Peg2-1Peg2-Ahx-C18_Diacid]-C-(D)Lys-NH2 [Compound 15],,DC50 (human ferroportin; [3]): > 3 µM
Isovaleric acid-D-T-H-[Dpa]-[Npc]-C-I-(D)Lys-bhPhe-Lys[isoGlu-Palm]-C-(D)Lys-NH2 [Compound 13],,DC50 (human ferroportin; [3]): 0.0161 µM
Isovaleric acid-D-T-H-[Dpa]-[Npc]-C-I-(D)Lys-bhPhe-[Lys(Ahx-Palm)]-(D)Lys-C-NH2 [Compound 4],,DC50 (human ferroportin; [3]): 0.00635 µM
Isovaleric acid-D-T-H-[Dpa]-[Npc]-C-I-(D)Lys-bhPhe-[Lys(Ahx-Palm)]-C-(D)Lys-NH2 [Compound 12],,DC50 (human ferroportin; [3]): 0.0115 µM
Isovaleric acid-D-T-H-[Dpa]-[Npc]-C-I-Lys[isoGlu-Palm]-bhPhe-C-(D)Lys-NH2 [Compound 19],,DC50 (human ferroportin; [3]): 0.00456 µM
[Isovaleric Acid]-D-T-H-F-P-C-I-[(D)Lys]-F-[Lys(PEG12_Palm)]-C-K-NH2 [Compound 334],0.032,
[Isovaleric Acid]-D-T-H-F-P-C-I-[(D)Lys]-F-[Lys(PEG12_Palm)]-K-[aMeCys]-NH2 [Compound 355],0.00755,
[Isovaleric Acid]-D-T-H-F-P-C-I-[Lys(IsoGlu_palm)]-F-E-P-R-S-K-G-C-K-NH2 [Compound 319],0.0358,
[Isovaleric Acid]-D-T-H-F-[Npc]-C-I-[(D)Lys]-F-[Lys(PEG12_Palm)]-[(D)Lys]-C-NH2 [Compound 351],0.0132,
[Isovaleric Acid]-D-T-H-[Dpa]-P-C-I-(D)Ala-[bhPhe]-[Lys(PEG12_Palm)]-[(D)Lys]-C-NH2 [Compound 332],0.011,
[Isovaleric Acid]-D-T-H-[Dpa]-P-C-I-I-[bhPhe]-[Lys(PEG12 Palm)]-[(D)Lys]-C-NH2 [Compound 331],0.024,
[Isovaleric Acid]-D-T-H-[Dpa]-P-C-I-[(D)Lys(Ac)]-[bhPhe]-[Lys(Ac)]-C-NH2 [Compound 325],0.0378,
[Isovaleric Acid]-D-T-H-[Dpa]-P-C-I-[(D)Lys]-F-Lys(PEG12_Palm)]-[(D)Lys]-[N-MeCys]-NH2 [Compound 342],0.0218,
[Isovaleric Acid]-D-T-H-[Dpa]-P-C-I-[(D)Lys]-F-[Lys(PEG12 Palm)]-[Dab]-C-NH2 [Compound 339],0.0228,
[Isovaleric Acid]-D-T-H-[Dpa]-P-C-I-[(D)Lys]-F-[Lys(PEG12 Palm)]-[Dap]-[Hcy]-NH2 [Compound 335],,IC50 (human ferroportin; [4]): 0.018 µM
[Isovaleric Acid]-D-T-H-[Dpa]-P-C-I-[(D)Lys]-F-[Lys(PEG12_Palm)]-C-NH2 [Compound 341],0.022,
[Isovaleric Acid]-D-T-H-[Dpa]-P-C-I-[(D)Lys]-F-[Lys(PEG12_Palm)]-K-[N-MeCys]-NH2 [Compound 343],0.0135,
[Isovaleric Acid]-D-T-H-[Dpa]-P-C-I-[(D)Lys]-F-[Lys(PEG12_Palm)]-[(D)Lys]-C-NH2 [Compound 337],0.0195,
[Isovaleric Acid]-D-T-H-[Dpa]-P-C-I-[(D)Lys]-F-[Lys(PEG12_Palm)]-[(D)Lys]-[Pen]-NH2 [Compound 344],0.00775,

Substance,DC50 (human ferroportin; [4]) [µM],also measured
[Isovaleric Acid]-D-T-H-[Dpa]-P-C-I-[(D)Lys]-F-[Lys(PEG12_Palm)]-[Dap]-[Pen]-NH2 [Compound 336],0.0493,
[Isovaleric Acid]-D-T-H-[Dpa]-P-C-I-[(D)Lys]-F-[Lys(PEG12_Palm)]-[Orn]-C-NH2 [Compound 340],0.0269,
[Isovaleric Acid]-D-T-H-[Dpa]-P-C-I-[(D)Lys]-[Dpa]-[Lys(PEG12_Palm)]-[(D)Lys]-C-NH2 [Compound 345],0.023,
[Isovaleric Acid]-D-T-H-[Dpa]-P-C-I-[(D)Lys]-[bhPhe]-K-[(D)Lys]-C-NH2 [Compound 327],0.142,
[Isovaleric Acid]-D-T-H-[Dpa]-P-C-I-[(D)Lys]-[bhPhe]-[Lys(Ac)]-C-NH2 [Compound 326],0.0957,
[Isovaleric Acid]-D-T-H-[Dpa]-P-C-I-[(D)Lys]-[bhPhe]-[Lys(PEG12_Palm)]-[(D)Lys]-C-NH2 [Compound 349],0.0112,
[Isovaleric Acid]-D-T-H-[Dpa]-P-C-I-[Lys(Ahx_Palm)]-[2Pal]-C-NH2 [Compound 320],0.00972,
[Isovaleric Acid]-D-T-H-[Dpa]-P-C-I-[Lys(Ahx_Palm)]-[2Pal]-[(D)Lys]-C-NH2 [Compound 321],0.0217,
[Isovaleric Acid]-D-T-H-[Dpa]-P-C-I-[bAla]-[bhPhe]-[(D)Lys]-C-NH2 [Compound 323],0.0106,
[Isovaleric Acid]-D-T-H-[Dpa]-P-C-I-[bhPhe]-[(D)Lys]-C-NH2 [Compound 324],0.0233,
[Isovaleric Acid]-D-T-H-[Dpa]-P-C-I-[bhPhe]-[Lys(PEG12_Palm)]-[(D)Lys]-C-NH2 [Compound 330],0.00693,
[Isovaleric Acid]-D-T-H-[Dpa]-[Npc]-C-I-[(D)Lys]-F-[Lys(PEG12 Palm)]-[(D)Lys]-C-NH2 [Compound 352],0.00648,
[Isovaleric Acid]-D-T-H-[Dpa]-[Npc]-C-I-[(D)Lys]-F-[Lys(PEG12_Palm)]-K-C-NH2 [Compound 360],0.00964,
[Isovaleric Acid]-D-T-H-[Dpa]-[Npc]-C-I-[(D)Lys]-[2Nal]-[Lys(PEG12_Palm)]-K-C-NH2 [Compound 357],0.0102,
"[Isovaleric Acid]-D-T-H-[Dpa]-[Npc]-C-I-[(D)Lys]-[Phe(3,4-diF)]-[Lys(PEG12 Palm)]-K-C-NH2 [Compound 346]",0.00616,
[Isovaleric Acid]-D-T-H-[Dpa]-[Npc]-C-I-[(D)Lys]-[Phe(4-(2-aminoethoxy)]-[Lys(PEG12 Palm)]-K-C-NH2 [Compound 358],> 3,
[Isovaleric Acid]-D-T-H-[Dpa]-[Npc]-C-I-[(D)Lys]-[Phe(4-CN)]-[Lys(PEG12_Palm)]-K-C-NH2 [Compound 347],0.023,
[Isovaleric Acid]-D-T-H-[Dpa]-[Npc]-C-I-[(D)Lys]-[Phe(4-COOH)]-[Lys(PEG12_Palm)]-K-C-NH2 [Compound 356],0.0001,
[Isovaleric Acid]-D-T-H-[Dpa]-[Npc]-C-I-[(D)Lys]-[Phe(4-tBu)]-[(D)Lys]-C-[Lys(PEG12_Palm)]-NH2 [Compound 328],0.0165,
[Isovaleric Acid]-D-T-H-[Dpa]-[Npc]-C-I-[(D)Lys]-[Phe(4-tBu)]-[Lys(PEG12_Palm)]-K-C-NH2 [Compound 359],0.00857,
[Isovaleric Acid]-D-T-H-[Dpa]-[Npc]-C-I-[(D)Lys]-[aMePhe]-[Lys(PEG12 Palm)]-K-C-NH2 [Compound 348],0.0021,

# — US20240018189A1 (Protagonist Therapeutics, Inc., priority 2020, published 2024)
